The results in this text go back to patent US20070148136A1, “Methods of using ammonia oxidizing bacteria” (priority 2003, published 2007).

Where two headings read alike, the source gives them in different places.

As to linear alkylbenzene sulfonates [LAS], the “LAS concentration at the solubility limit of Ca(LAS)2” value is 26 ppm (LAS MW 339, Ksp 1.8 e-11) and 18 ppm (calcium 3 mM/L as in human sweat, LAS MW 343).
